Experimental data from US20030171347A1, “Sigma receptor antagonists having anti-cocaine properties and uses thereof” (priority 1998, published 2003).

Key:
Male, Swiss Webster mice [1] = test: Attenuation of cocaine-induced convulsions, systemic pre-treatment; conditions: ligand 0-30 mg/kg i.p. 15 min before cocaine 60 mg/kg i.p.; observed 30 min; Fisher's exact test
Male, Swiss Webster mice [2] = test: Attenuation of cocaine-induced lethality, pre-treatment; format: in vivo
Male, Swiss Webster mice [3] = test: Attenuation of cocaine-induced locomotor activity; format: in vivo; conditions: BD1008 1 mg/kg i.p. or BD1063 30 mg/kg i.p. 15 min before cocaine 0-20 mg/kg i.p.
[4] = historic sigma compounds 0-60 mg/kg i.p. 15 min before cocaine 125 mg/kg i.p.
[5] = ligand 0-30 mg/kg i.p. 15 min before cocaine 125 mg/kg i.p., observed 30 min

Compound | attenuation of cocaine-induced convulsions (proportion of mice convulsing) (Male, Swiss Webster mice [1]) | further results
COc1cccc(CC(=O)N(C)CCN2CCCC2)c1 [YZ-005] | ineffective | –
CN(CCc1ccc(N)cc1)CCN1CCCC1 [YZ-030] | intermediate protection | –
C[C@@H]1CN(CCCn2c3ccccc3c3ccccc32)C[C@H](C)N1 [Rimcazole, reference compound] | – | attenuation of cocaine-induced lethality (proportion of mice dying) (Male, Swiss Webster mice [2]; [4]): ineffective
COc1cccc(CCN2CCN(C(=O)Cc3cccc(OC)c3)CC2)c1 [YZ-085-2] | significantly attenuated cocaine-induced convulsions | –
C=CCN1CC[C@]23c4c5ccc(O)c4O[C@H]2C(=O)CC[C@@]3(O)[C@H]1C5 [Naloxone] | – | attenuation of cocaine-induced lethality (proportion of mice dying) (Male, Swiss Webster mice [2]; [4]): ineffective
CN(C)CCN(C)CCc1ccc(Cl)c(Cl)c1 [BD1047] | – | attenuation of cocaine-induced lethality (proportion of mice dying) (Male, Swiss Webster mice [2]; [5]): significant attenuation
CN(CCc1cccc(N)c1)CCN1CCCC1 [YZ-033] | intermediate protection | –
Nc1ccccc1CCN1CCN(CCCc2ccccc2)CC1 [YZ-165-2-2] | significantly attenuated cocaine-induced convulsions | –
COc1ccc(CCN2CCN(CCCc3ccccc3)CC2)cc1 [YZ-067-2] | significantly attenuated cocaine-induced convulsions | –
O=C(CCCN1CCC(O)(c2ccc(Cl)cc2)CC1)c1ccc(F)cc1 [Haloperidol] | – | attenuation of cocaine-induced lethality (proportion of mice dying) (Male, Swiss Webster mice [2]; [4]): significant attenuation
Clc1ccc(CCN2CCN(CCCc3ccccc3)CC2)cc1Cl [YZ-069-2] | significantly attenuated cocaine-induced convulsions | –
OC(CCCN1CCN(c2ncc(F)cn2)CC1)c1ccc(F)cc1 (stereo not drawn) [BMY14802, reference compound] | – | attenuation of cocaine-induced lethality (proportion of mice dying) (Male, Swiss Webster mice [2]; [4]): significant attenuation
CN(CCc1ccccc1N)CCN1CCCC1 [YZ-032] | intermediate protection | –
NCCN1CCN(CCCc2ccccc2)CC1 [YZ-136-2] | significantly attenuated cocaine-induced convulsions | –
COc1ccc(CC(=O)N2CCN(CCCc3ccccc3)CC2)cc1 [YZ-051-2] | significantly attenuated cocaine-induced convulsions | –
CN1CCN(CCc2ccc(Cl)c(Cl)c2)CC1 [BD1063] | – | attenuation of cocaine-induced lethality (proportion of mice dying) (Male, Swiss Webster mice [2]; [5]): significant attenuation; ED50 for the locomotor stimulatory effects of cocaine in the presence of the ligand (Male, Swiss Webster mice [3]): 16 mg/kg, i.p.
COc1ccccc1CC(=O)N1CCN(CCCc2ccccc2)CC1 [YZ-048-2] | significantly attenuated cocaine-induced convulsions | –
COc1ccccc1CCN1CCN(CCCc2ccccc2)CC1 [YZ-184-2] | significantly attenuated cocaine-induced convulsions | –
OC(CCCN1CCC(O)(c2ccc(Cl)cc2)CC1)c1ccc(F)cc1 (stereo not drawn) [Reduced haloperidol] | – | attenuation of cocaine-induced lethality (proportion of mice dying) (Male, Swiss Webster mice [2]; [4]): significant attenuation
COc1ccc(CC(=O)N(C)CCN2CCCC2)cc1 [YZ-007] | ineffective | –
CC(C)=CCN1CCC2(C)c3cc(O)ccc3CC1C2C (single isomer, unassigned; (+)) [(+)-Pentazocine, reference compound] | – | protection against cocaine-induced lethality by sigma receptor agonists (Male, Swiss Webster mice [2]; agonist 30 mg/kg i.p. 15 min before cocaine 125 mg/kg i.p.): failed to protect against the lethal effects of cocaine
O=C(Cc1ccc([N+](=O)[O-])cc1)N1CCN(CCCc2ccccc2)CC1 [YZ-155-2] | significantly attenuated cocaine-induced convulsions | –
COc1ccccc1CC(=O)N(C)CCN1CCCC1 [YZ-008] | ineffective | –
